In ChEMBL document CHEMBL1629500, “Synthesis and anticonvulsant activity of N-3-arylamide substituted 5,5-cyclopropanespirohydantoin derivatives” (Eur J Med Chem, 2010):

Assays:
Mus musculus [1] = species on record: Mus musculus; assay: Protective index, ratio of TD50 for mouse to ED50 for inhibition of maximal electroshock-induced seizure in mouse
Mus musculus [2] = assay: Protective index, ratio of TD50 for mouse to ED50 for inhibition of subcutaneous pentylenetetrazole-induced seizure in mouse

`CCCC(CCC)C(=O)[O-].[Na+]` [VALPROATE SODIUM] was tested, and the Ratio (Mus musculus [1]) was 1.6 and the Ratio (Mus musculus [2]) was 2.9.
